Reference: patent publication US11466006B2, “Dual selective PI3 delta and gamma kinase inhibitors” (Rhizen Pharmaceuticals SA, priority 2013, dated 2022)

By UniProt entry, the sequences of proteins in these tests, tags left out. Where a name states a change or a piece, a line headed by the entry shows the natural chain unless it says otherwise.
UniProt O00329, whole entry: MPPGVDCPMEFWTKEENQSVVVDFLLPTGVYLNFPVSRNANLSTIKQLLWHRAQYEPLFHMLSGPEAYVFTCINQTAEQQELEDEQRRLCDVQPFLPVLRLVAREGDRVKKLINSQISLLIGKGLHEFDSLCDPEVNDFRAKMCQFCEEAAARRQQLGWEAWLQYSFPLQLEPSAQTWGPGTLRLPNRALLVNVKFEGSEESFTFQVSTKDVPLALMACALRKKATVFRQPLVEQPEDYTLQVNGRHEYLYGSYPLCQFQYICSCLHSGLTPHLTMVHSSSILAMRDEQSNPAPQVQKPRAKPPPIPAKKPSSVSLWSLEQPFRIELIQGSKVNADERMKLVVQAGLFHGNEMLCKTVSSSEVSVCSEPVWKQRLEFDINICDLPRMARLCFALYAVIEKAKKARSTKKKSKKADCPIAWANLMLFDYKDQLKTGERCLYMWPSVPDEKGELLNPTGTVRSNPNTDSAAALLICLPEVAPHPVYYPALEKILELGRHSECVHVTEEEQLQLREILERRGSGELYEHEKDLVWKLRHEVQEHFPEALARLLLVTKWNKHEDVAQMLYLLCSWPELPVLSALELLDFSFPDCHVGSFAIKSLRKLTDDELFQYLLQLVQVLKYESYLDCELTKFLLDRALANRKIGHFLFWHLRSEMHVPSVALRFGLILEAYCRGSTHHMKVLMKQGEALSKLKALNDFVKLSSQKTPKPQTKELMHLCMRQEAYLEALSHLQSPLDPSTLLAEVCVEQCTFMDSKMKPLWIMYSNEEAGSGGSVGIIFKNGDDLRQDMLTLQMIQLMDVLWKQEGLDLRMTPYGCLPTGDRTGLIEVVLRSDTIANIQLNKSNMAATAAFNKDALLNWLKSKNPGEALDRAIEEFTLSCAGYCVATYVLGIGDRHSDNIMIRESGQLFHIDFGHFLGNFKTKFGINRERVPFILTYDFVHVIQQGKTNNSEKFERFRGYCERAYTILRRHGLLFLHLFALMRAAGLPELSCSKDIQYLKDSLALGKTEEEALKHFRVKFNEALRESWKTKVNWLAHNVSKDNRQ
UniProt P48736, whole entry: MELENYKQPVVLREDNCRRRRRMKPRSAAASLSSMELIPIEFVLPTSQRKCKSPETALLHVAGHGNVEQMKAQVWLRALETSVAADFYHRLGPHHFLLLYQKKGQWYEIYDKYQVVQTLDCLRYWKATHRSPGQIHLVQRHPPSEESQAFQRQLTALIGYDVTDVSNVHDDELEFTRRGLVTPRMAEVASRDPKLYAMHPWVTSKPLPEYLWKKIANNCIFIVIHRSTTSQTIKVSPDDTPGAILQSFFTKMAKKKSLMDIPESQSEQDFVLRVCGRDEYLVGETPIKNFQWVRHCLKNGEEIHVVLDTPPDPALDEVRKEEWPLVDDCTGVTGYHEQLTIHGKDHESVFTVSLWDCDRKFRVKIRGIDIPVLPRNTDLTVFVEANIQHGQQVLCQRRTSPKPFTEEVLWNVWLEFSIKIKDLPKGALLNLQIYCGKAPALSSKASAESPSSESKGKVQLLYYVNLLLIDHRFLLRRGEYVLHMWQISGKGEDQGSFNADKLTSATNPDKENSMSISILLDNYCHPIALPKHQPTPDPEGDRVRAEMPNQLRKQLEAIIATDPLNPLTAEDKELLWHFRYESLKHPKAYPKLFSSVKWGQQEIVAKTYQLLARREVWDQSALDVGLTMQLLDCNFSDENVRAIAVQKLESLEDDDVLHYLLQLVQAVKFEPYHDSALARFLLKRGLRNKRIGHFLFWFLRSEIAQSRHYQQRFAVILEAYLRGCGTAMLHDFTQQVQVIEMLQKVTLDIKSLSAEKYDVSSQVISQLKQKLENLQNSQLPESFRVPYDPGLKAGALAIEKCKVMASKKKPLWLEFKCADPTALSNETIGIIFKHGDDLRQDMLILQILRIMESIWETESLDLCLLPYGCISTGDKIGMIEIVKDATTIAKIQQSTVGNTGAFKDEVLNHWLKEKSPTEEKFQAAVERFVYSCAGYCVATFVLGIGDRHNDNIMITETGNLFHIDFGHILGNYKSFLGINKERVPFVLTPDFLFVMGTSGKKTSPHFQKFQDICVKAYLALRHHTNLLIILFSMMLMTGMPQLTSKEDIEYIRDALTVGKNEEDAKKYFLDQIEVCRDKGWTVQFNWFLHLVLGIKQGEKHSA
UniProt P27986, whole entry partner: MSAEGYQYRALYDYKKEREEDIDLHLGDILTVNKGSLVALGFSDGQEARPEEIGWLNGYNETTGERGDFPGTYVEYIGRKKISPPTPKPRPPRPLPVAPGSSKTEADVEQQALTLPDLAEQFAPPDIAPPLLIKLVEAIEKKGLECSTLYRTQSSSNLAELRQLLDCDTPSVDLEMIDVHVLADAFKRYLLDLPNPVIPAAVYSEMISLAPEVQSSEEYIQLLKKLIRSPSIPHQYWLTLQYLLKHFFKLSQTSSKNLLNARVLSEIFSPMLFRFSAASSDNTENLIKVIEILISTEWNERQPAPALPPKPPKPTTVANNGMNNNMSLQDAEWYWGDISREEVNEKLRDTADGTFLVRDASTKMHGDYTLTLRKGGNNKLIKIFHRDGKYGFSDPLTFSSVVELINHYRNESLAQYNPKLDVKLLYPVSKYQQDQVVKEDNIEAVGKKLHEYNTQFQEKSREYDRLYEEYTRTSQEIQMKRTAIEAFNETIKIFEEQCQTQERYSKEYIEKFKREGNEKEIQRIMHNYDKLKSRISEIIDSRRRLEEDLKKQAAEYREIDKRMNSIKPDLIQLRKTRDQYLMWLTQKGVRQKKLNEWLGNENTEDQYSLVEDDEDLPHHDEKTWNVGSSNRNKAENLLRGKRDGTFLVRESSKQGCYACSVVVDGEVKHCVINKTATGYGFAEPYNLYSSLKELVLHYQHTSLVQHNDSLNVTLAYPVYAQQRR

How the values were obtained:
PI3Kδ = PI3Kδ (Homo sapiens, UniProt O00329); test: Fluorescent (HTRF) determination of PI3 kinase enzyme activity, delta isoform; settings: read-out: PI3K δ IC50 in nM; Table 2, comparative data
Excerpt: (§1) Phosphoinositide 3 kinases (PI3K) belong to a class of lipid kinases that play a critical role in the regulation of several key cellular processes. The PI3K are capable of phosphorylating the 3-hydroxy position of phosphoinositols thereby generating second messengers involved in downstream signalling events. The homogenous time resolved fluorescence (HTRF) assay allows detection of 3,4,5-triphosphate (PIP3) formed as a result of phosphorylation of phosphotidylinositol 4,5-biphosphate (PIP2) by PI3K isoforms such as α, β, γ or δ.
(§2) PI3K isoform activity for α, β, γ or δ was determined using a PI3K human HTRF™ Assay Kit (Millipore, Billerica, Mass.) with modifications. All incubations were carried out at room temperature. Briefly, 0.5 μl of 40× inhibitor (in 100% DMSO) or 100% DMSO were added to each well of a 384-well white plate (Greiner Bio-One, Monroe, N.C.) containing 14.5 μl 1× reaction buffer /PIP2 (10 mM MgCl2, 5 mM DTT, 1.38 μM PIP2) mix with or without enzyme, followed by 5 μl/well of 400 μM ATP and incubated for an additional 30 minutes. Reaction was terminated by adding 5 μl/well stop solution (Millipore, Billerica, Mass.). […] HRTF ratio was measured on a microplate reader (BMG Labtech., Germany) at an excitation wavelength of 337 nm and emission wavelengths of 665 and 615 nm with an integration time of 400 msec counting delay of 50 msec.

Pi3K γ = Pi3K γ (Homo sapiens, UniProt P48736); test: Fluorescent (HTRF) determination of PI3 kinase enzyme activity, gamma isoform; settings: Table 2, at 1 μm
Excerpt: as §1, §2

- IC50 (PI3Kδ): 106 nM
- PI3Kγ % Inhibition at 1 μm (Pi3K γ): 25.54%
SMILES: C[C@H](Nc1ncnc2[nH]cnc12)c1oc2ccccc2c(=O)c1-c1cccc(F)c1
